Results on one molecule are retold here after ChEMBL document CHEMBL1138057, “Synthesis and structure-activity relationships of N-{3-[2-(4-alkoxyphenoxy)thiazol-5-yl]-1- methylprop-2-ynyl}carboxy derivatives as selective acetyl-CoA carboxylase 2 inhibitors” (J Med Chem, 2006).

Molecules are shown by their SMILES.

For the experiment, the target named is Acetyl-CoA carboxylase 1 (Rattus norvegicus, UniProt P11497). Nature of the experiment: Inhibitory activity against rat ACC1.

The molecule `O=C(c1c2ccccc2cc2ccccc12)N1CCC(N2CCC[C@@H](C(=O)N3CCOCC3)C2)CC1` had an IC50 of 53 nM.
